Target: T1, Nuclear receptor ROR-gamma (Mus musculus) (UniProt P51450)
T1 sequence (whole entry): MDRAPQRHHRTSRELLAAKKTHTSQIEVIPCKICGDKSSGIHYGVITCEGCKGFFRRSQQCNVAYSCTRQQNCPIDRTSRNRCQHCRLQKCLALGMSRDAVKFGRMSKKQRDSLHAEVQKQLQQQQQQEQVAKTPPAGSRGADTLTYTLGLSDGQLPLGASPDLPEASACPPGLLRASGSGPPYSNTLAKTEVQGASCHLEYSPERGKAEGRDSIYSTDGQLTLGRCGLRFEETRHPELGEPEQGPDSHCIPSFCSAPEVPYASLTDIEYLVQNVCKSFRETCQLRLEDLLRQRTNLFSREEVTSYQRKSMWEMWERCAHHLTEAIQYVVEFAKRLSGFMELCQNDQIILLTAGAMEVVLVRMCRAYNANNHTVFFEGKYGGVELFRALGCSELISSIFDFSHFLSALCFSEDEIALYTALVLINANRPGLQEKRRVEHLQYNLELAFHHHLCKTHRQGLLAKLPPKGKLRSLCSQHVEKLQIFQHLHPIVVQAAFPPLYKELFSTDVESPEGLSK
Assay: Agonist activity at RORgammat in C57 mouse CD4+ T cells assessed as induction of Th17 cells differentiation by measuring increase in IL17 production measured after 4 days by flow cytometry analysis relative to control
Format: cell-based
Conditions: CD4+ve Th, filed as agonist, time 4.0 day

max activation: 122%
SMILES: CC(=O)N1CCN(c2ccc3c(c2)CCN(S(=O)(=O)N(C)Cc2ccccc2C(F)(F)F)C3)CC1

Reference: ChEMBL document CHEMBL4825693, “Discovery of novel N-sulfonamide-tetrahydroisoquinolines as potent retinoic acid receptor-related orphan receptor γt agonists” (Eur J Med Chem, 2021)
